Results as given in US20230022157A1 (Achillion Pharmaceuticals, Inc., priority 2018, published 2023).

The chains behind the UniProt entries cited, without tags or fusion partners. Residues count along the entry.
UniProt P00746, 26-253 limits assumed: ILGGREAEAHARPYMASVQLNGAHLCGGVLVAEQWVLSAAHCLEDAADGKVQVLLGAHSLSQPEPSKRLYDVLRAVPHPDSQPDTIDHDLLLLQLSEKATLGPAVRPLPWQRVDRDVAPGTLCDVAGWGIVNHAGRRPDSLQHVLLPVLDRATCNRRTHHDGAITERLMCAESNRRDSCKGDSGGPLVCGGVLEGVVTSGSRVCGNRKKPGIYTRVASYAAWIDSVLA

Molecular target: Human Factor D (Homo sapiens, UniProt P00746)
Test: Human Factor D Assay
Details: read-out: IC50 (Stars); Human Factor D 80 nM, substrate Z-L-Lys-SBzl; Table 2

| SMILES | IC50 |
| --- | --- |
| CCC(C)(C)CNC(=O)[C@@H]1C[C@@]2(C)C[C@H]2N1C(=O)Cn1nc(C(C)=O)c2cc(-c3cnc(C)nc3)cc(C)c21 | < 1000 nM |
| CCC(=O)c1ncc(-c2cc(C)c3c(c2)c(C(C)=O)nn3CC(=O)N2[C@H](C(=O)Nc3nc(Br)ccc3C)C[C@@]3(C)C[C@@H]23)cn1 | < 1000 nM |
| CC(=O)c1nn(CC(=O)N2[C@H](C(=O)NCC(C)(C)OC(C)C)C[C@@]3(C)C[C@@H]23)c2c(C)cc(-c3cnc(C)nc3)cc12 | > 10000 nM |
